For one series, the system named is herpes genitalis. As to conditions: 0.07% by weight foam (vaginal) and cream (external), three times a day for five days. As to the method: Using an applicator, the foam is injected into the vaginal space to treat herpetic lesions therein. The cream is applied topically to external lesions. The cream and foam are applied three times a day for a period of five days.

The next series deals with herpes labialis. As to conditions: 0.07% by weight lipstick, three times a day for five days. From the text: The treatment consists of topical application three times a day for a period of five days.

On to histamine diphosphate, for which the untoward reactions entry with herpes genitalis and in the series with herpes labialis was “no untoward reactions” throughout.

For the origin of these results see patent publication US20020095001A1, “Methods and compositions for topical treatment of damaged tissue using reactive oxygen metabolite production or release inhibitors” (priority 1999, published 2002).
